# Measurements as given in publication PMC2582960, “A Structural Model of the Staphylococcus aureus ClfA–Fibrinogen Interaction Opens New Avenues for the Design of Anti-Staphylococcal Therapeutics” (PLoS Pathogens, 2008).
# Protein sequences, listed by entry. Tags and fused reporters are not part of them. Lines headed by an entry give the natural chain unless they say otherwise; changes in a name come on top. Chains listed by the source or under a name are the forms on record and can include a tag or linker.
# UniProt P02671, other isoform, or with tags, fused parts or gaps, chain 1 of 3: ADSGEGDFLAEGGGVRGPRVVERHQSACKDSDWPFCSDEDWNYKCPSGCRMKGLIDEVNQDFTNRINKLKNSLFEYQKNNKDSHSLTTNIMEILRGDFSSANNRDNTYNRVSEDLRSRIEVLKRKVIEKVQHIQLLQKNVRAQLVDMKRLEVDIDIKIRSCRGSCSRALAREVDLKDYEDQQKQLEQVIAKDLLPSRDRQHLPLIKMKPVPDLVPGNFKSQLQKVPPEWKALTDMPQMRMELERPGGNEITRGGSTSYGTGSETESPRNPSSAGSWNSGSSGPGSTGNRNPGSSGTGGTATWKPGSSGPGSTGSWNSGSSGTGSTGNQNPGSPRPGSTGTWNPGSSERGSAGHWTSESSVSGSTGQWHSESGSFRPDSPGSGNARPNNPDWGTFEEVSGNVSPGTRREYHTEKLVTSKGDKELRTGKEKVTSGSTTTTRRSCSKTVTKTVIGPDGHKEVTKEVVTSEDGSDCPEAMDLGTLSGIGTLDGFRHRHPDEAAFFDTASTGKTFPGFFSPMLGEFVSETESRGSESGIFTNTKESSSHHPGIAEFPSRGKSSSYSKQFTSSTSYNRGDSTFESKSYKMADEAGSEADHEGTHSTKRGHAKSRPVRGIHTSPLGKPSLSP
# UniProt Q53653: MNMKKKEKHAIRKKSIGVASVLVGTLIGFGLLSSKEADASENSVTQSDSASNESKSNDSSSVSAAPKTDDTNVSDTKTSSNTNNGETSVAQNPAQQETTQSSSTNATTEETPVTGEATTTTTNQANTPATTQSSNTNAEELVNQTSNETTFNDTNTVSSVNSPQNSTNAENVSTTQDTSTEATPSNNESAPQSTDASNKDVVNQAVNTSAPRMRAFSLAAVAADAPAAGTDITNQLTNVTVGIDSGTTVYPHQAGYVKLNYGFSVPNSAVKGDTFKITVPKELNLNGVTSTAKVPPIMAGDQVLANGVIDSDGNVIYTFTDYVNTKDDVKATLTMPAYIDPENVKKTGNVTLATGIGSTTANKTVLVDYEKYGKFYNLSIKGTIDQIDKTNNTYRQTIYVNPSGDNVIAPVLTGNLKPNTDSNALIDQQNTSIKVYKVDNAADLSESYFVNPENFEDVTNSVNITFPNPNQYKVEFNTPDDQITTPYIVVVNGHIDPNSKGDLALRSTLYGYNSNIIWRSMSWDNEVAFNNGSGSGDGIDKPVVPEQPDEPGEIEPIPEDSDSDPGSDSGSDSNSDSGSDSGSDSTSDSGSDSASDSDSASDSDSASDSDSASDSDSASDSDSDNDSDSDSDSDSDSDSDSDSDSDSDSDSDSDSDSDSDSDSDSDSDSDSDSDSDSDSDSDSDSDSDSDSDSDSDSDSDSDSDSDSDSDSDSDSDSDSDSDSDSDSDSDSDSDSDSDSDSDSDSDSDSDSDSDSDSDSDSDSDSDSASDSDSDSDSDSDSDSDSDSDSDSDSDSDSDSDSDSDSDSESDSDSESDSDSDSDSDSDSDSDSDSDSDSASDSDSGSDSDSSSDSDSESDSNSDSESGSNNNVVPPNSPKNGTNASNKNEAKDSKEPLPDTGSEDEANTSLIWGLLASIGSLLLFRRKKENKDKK
# Target: human fibrinogen (Fg), full length (human) (UniProt P02671)
# Assay: ELISA; human Fg or GST fusion protein coated (1 µg/well); His-tagged ClfA added in increasing concentrations in HBS (10 mM HEPES, 100 mM NaCl, 3 mM EDTA, pH 7.4), 25°C, 1 h; bound ClfA detected with anti-His antibodies; apparent Kd
substance,measurement,value
"ClfA_(229–545) (clumping factor A, N2N3 domains) (from UniProt Q53653 229-545) (domain or fragment)",Kd,305 nM
